# According to US9278990B2, “Substituted nucleotide analogs” (priority 2010, dated 2016):
# Tested on: HCV genotype 1b HCV replicon harbored in Huh7 cells
# Assay: Combination testing in HCV replicon (CalcuSyn CI and MacSynergy II synergy volume)
# Assay type: cell-based
# Conditions: combination of compound 3b with the listed combination compound; MacSynergy II (Bliss independence); 72 h; 25-100 synergistic, >100 strongly synergistic
# Experimental: Two or more test compounds were tested in combination with each other using an HCV genotype 1b HCV replicon harbored in Huh7 cells with a stable luciferase (LUC) reporter. Cells were cultured under standard conditions in Dulbecco's modified Eagle's medium (DMEM; Mediatech Inc, Herndon, Va.) containing 10% heat-inactivated fetal bovine serum (FBS; Mediatech Inc, Herndon, Va.) 2 mM L-glutamine, and nonessential amino acids (JRH Biosciences). HCV replicon cells were plated in a 96-well plate at a density of 10^4 cells per well in DMEM with 10% FBS. […] The cells were incubated with no compound as a control, with the test compounds, or the combination of compounds for 72 h. The direct effects of the combination of the test compounds were examined using a luciferase (LUC) based reporter as determined by the Bright-Glo Luciferase Assay (Promega, Madison, Wis.). Dose-response curves were determined for individual compounds and fixed ratio combinations of two or more test compounds.
# The effects of test compound combinations were evaluated by two separate methods. In the Loewe additivity model, the experimental replicon data was analyzed by using CalcuSyn (Biosoft, Ferguson, Mo.), a computer program based on the method of Chou and Talalay. The program uses the experimental data to calculate a combination index (CI) value for each experimental combination tested. […]
smiles,measurement,value
CS(=O)(=O)Nc1ccc2c(c1)S(=O)(=O)N=C(C1=C(O)[C@@H]3[C@H]4CC[C@H](C4)[C@@H]3N(Cc3ccc(F)cc3)C1=O)N2 [ANA-598],Synergy Volume,161 μM^2%
